Experimental findings from patent US6669951B2, “Compositions and methods for enhancing drug delivery across and into epithelial tissues” (CellGate, Inc., priority 1999, dated 2003) are described below.

In the data set the test system is skin of nude mice. In words: Penetration of biotinylated conjugates into skin of nude mice (streptavidin staining). As to conditions: 1 mM-100 μM in PBS, thirty, sixty, 120 minutes. As to the method:
Samples (100 μl) were applied as a liquid without excipient, prevented from dispersing by a Vaseline™ barrier, and allowed to penetrate for fifteen minutes. At the end of this period the animal was sacrificed, the relevant sections of skin were excised, embedded in mounting medium (OCT), and frozen. Frozen sections (5 microns) were cut using a cryostat, collected on slides, and stained with fluorescently labeled streptavidin (Vector Laboratories, Burlingame, Calif.). The slides were fixed in acetone at 4° C. for ten minutes, air dried, soaked in PBS for five minutes, blocked with normal goat serum for five minutes, and washed with PBS for five minutes. The section was stained by incubation with fluorescently labeled streptavidin at 30 μg/ml for thirty minutes, washed with PBS, counterstained with propidium iodide (1 μg/ml) for two minutes, and the section was mounted with Vectashield™ mounting media. Slides were analyzed by fluorescent microscopy. Parallel studies were done using streptavidin-horse radish peroxidase rather than fluorescein-streptavidin. The biotinylated peptide was visualized by treatment of the sections with the horseradish peroxidase substrate diaminobenzadine, and visualization with light microscopy.
Alternatively, sample (100 μl) was applied as a liquid without excipient and prevented from evaporating by wrapping plastic wrap over the sample sealed with Vaseline™. […] Slides were analyzed by fluorescent microscopy.
At the end of this period animal was sacrificed, the relevant section of skin was excised, embedded in mounting medium (OCT) and frozen. […] Slides were analyzed by fluorescent microscopy
(§1) At the end of this period animal was sacrificed, the relevant section of skin was excised, embedded in mounting medium (OCT) and frozen. […] Slides were analyzed by fluorescent microscopy.
as §1

“B-aca-r5-Ala-Ala-Cys-O-acyl-Cyclosporin A”: the “penetration of drug conjugates into skin” value was “very little uptake was seen”.
Regarding “Biotin-aminocaproic acid-r5-C(hydrocortisone)-CONH2”, the “penetration of drug conjugates into skin” value was “very little uptake was seen”.
Consider “Biotin-aminocaproic acid-r7-C(hydrocortisone)-CONH2”, for which the “penetration of drug conjugates into skin” value is “effectively entered into and across the epidermis and into the dermis of the skin of nude mice”.
